Source: ChEMBL document CHEMBL1221216, “Chemical probes for histone-modifying enzymes” (Nat Chem Biol, 2008)

Molecular target: T1, Histone-lysine N-methyltransferase EHMT1 (Homo sapiens, UniProt Q9H9B1)
T1 sequence (Q9H9B1 whole entry): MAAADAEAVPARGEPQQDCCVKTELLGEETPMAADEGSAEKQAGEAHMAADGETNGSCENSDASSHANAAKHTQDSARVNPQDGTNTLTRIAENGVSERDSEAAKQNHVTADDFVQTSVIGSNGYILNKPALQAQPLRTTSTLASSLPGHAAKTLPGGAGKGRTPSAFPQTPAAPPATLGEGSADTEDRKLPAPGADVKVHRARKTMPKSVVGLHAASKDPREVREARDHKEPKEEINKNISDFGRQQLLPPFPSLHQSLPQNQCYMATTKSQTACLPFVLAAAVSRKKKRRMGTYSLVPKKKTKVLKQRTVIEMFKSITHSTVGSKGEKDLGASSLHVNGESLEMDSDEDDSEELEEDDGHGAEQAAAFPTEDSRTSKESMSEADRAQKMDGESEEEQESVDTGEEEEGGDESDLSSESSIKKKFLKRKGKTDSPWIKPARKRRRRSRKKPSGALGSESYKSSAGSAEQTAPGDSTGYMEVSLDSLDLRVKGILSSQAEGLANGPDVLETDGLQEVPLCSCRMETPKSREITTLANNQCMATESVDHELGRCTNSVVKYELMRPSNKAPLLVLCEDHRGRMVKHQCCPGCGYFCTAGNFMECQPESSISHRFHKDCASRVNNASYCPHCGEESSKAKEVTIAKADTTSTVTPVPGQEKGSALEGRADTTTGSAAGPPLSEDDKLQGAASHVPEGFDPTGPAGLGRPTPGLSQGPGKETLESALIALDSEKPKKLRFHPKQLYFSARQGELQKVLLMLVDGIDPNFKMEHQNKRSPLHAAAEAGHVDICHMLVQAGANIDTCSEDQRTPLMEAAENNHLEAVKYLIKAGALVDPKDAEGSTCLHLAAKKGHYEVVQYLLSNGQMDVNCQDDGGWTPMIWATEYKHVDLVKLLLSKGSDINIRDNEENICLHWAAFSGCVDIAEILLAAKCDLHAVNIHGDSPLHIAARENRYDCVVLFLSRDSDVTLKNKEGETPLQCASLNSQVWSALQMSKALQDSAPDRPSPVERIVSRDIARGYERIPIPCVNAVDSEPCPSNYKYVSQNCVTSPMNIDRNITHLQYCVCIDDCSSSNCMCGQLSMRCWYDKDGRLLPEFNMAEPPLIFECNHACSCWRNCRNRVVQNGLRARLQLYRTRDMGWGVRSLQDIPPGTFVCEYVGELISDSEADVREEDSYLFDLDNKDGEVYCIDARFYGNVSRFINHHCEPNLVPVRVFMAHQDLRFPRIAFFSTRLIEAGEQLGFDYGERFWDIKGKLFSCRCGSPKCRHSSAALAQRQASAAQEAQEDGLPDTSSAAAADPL
Assay: Inhibition of Histone H3 lysine 9 of GLP methyltransferase

COc1cc2nc(N3CCCN(C)CC3)nc(NC3CCN(Cc4ccccc4)CC3)c2cc1OC
pIC50: 4.42

pIC50: −log10 of the molar value.
